Test results from patent publication US6350609B1, “Electrospraying for mass fabrication of chips and libraries” (New York University, priority 1997, dated 2002).

Tested on: goat antibody against human serum albumin
Experiment: microELISA of electrospray-deposited protein antigens on IMMOBILON-P filter
Assay type: binding
Settings: primary antibody against human serum albumin 1:1000, AP-labeled secondary antibody 1:3000
Description: Different antigens (serum albumins from human and ox, ovalbumin and human hemoglobin) were electrospray deposited onto a wetted IMMOBILON-P membrane filter through a mask having multiple holes. After each deposition of a different protein antigen, the mask was shifted by 1.1 mm. After depositing all four protein antigens, the membrane filter was dried for 15 min. at 37° C. and blocked by soaking in a PBS solution (10 mM sodium phosphate buffer, pH 7.2, 0.9% NaCl) with 0.05% Tween-20, 1% chicken albumin (ovalbumin). After blocking, the membrane filter was soaked in a solution of a goat antibody against human serum albumin (Sigma, diluted 1:1000) for an hour. The filter was then washed twice with PBS buffer for 10 seconds and reacted with a solution of anti-goat IgG antibodies labeled with alkaline phosphatase (Sigma, diluted 1:3000). After washing off excess anti-goat antibodies with PBS, the position of the enzyme-labeled spot was identified by soaking the filter in a solution of an alkaline phosphatase substrate capable of producing an insoluble product as described in Example 3.

Substance: human serum albumin: protein antigen electrospray deposited onto IMMOBILON-P filter
- spot intensity in microELISA: the most intense
